In assay [1] the target is recombination human PD-1 extracellular protein (Sino Biological Inc.) (human) (UniProt Q15116). Briefly: competitive ELISA, plate coated with human PD-1 protein; competitor biotin-hAb21. A general note: ELISA stands for enzyme-linked immunosorbent assay.
Assay [2] shares this target. Briefly: competitive ELISA, plate coated with human PD-1 protein; competitor biotin-Nivolumab.

Chains of the proteins cited; added tags and fusions are not shown. Residues count along the entry.
UniProt Q15116, 25-170: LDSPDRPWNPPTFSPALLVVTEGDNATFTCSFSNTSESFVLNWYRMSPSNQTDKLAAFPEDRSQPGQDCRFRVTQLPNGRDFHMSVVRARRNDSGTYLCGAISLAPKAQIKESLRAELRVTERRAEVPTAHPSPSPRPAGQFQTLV

With MK3475 (Pembrolizumab) (antibody), the antagonizing/inhibiting ratio in assay [1] was 50%. For the same substance, the inhibiting efficiency in assay [2] stood at 70%.

Values taken from patent US20200277376A1.
